## Ab-14 light chain CDR variants: yeast mating affinities

Reference: Li et al. 2023, doi:10.1038/s41467-023-39022-2. File: FLAb, binding data.

All variants were tested on one target, the spike HR2 peptide PDVDLGDISGINAS (SARS-CoV-2).

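These sequences belong to a second round, designed from the earlier measurements on random variants of the parent. Several design methods are mixed in this list. AlphaSeq pools MATa yeast showing the antibodies with MATalpha yeast showing the peptide. Pairs that bind mate more often; barcode pairs of the diploids are counted by sequencing. The ratio of observed to expected reads was calibrated, replicate by replicate, on BCL2-family standards whose Kd was known from biolayer interferometry. Each pool was mated in six replicate cultures.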

Parent: Ab-14, a human scFv built as VH, the linker GGGGSGGGGSGGGGS, VL. Only the CDRs of the light chain vary.
VH: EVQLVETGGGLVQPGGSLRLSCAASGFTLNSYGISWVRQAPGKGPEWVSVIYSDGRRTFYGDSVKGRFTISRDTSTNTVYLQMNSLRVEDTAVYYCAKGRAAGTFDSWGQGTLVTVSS
VL: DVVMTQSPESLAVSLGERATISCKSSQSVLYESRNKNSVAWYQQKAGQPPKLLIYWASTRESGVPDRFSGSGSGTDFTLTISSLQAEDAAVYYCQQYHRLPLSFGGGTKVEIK

The parent's light chain CDRs are KSSQSVLYESRNKNSVA, WASTRES, QQYHRLPLS; each variant's own CDRs replace them letter for letter.
Affinities are written as log10 Kd with Kd in nM; a lower number is a better binder.
A mean of the replicates is given; it leaves out those without a signal.
An entry "nd" has no value in the source: the pair was not observed among the diploids in any replicate. This suggests poor binding but is not conclusive.
As a blank, each scFv also met three strains without target: over all light chain designs, 4% of these pairings were detected, typically at 2.64 and seldom below 1.59. The control count says in how many pairings with the empty strains this scFv gave a signal.
Values of this round are not directly comparable with the first-round values of the same sequences.
The parent sequence was in this pool as ten entries: three were never detected, three once, and four in most replicates, with averages from 0.34 to 2.37.
The authors' rule: three or more of the six replicates give a measured affinity, fewer mean a poor binder.

| mean log10 Kd (nM) | seen in | signal with controls | CDR-L1 | CDR-L2 | CDR-L3 |
|---|---|---|---|---|---|
| 2.36 | 3/6 | 0/18 | TIAQSVNMTSHGRNSVA | QAEMRES | QQYDRLPLS |
| 0.00 | 6/6 | 1/18 | KLDQSVDYESRNKNSVA | NASTRES | QQYHRLPLS |
| nd | 0/6 | 0/18 | KSSYSVLYNSTNKNSVA | WASTRES | QQYHRLPLS |
| -0.01 | 6/6 | 2/18 | KFSQSVLYESRTKNSVA | NASTREF | QQYHRLPLS |
| nd | 0/6 | 0/18 | KSSQSVLYESRNKNSVA | WASTRES | QTYIRLPLS |
| 1.07 | 6/6 | 2/18 | MFSQTVMYESTMRNNVA | QTSTRES | QQYDLLPLS |
| -0.07 | 6/6 | 2/18 | KVSPSHLYESRNKNSVA | DASTRES | QQYHRLPLS |
| 0.60 | 6/6 | 2/18 | KSSQSVLYESGNKNSVA | EASTREQ | QQYHRLPLS |
| 1.03 | 6/6 | 1/18 | MLGMTVMQGMYSRNNVA | QEETRAD | QQYHHLPLS |
| -0.35 | 6/6 | 0/18 | NISQMFFMETKNVNNVA | QTSTRES | QDYHRLPLS |
| -0.22 | 6/6 | 0/18 | KLQQSWLYESRNKNSVA | NASERES | QQYHRLPLS |
| 0.71 | 6/6 | 0/18 | TISQMWFLESKNKNNVA | EESTRLD | QSYFRLPLS |
| 1.77 | 6/6 | 0/18 | KLQFLVLYESRNKNSVA | GASTRES | QAYHRLPLS |
| 1.04 | 6/6 | 0/18 | KSSKSVLLESSNKNSVA | HASTRES | QQYWRLPLS |
| -0.12 | 6/6 | 1/18 | KITTTMRFEQKNTNNIA | EVSTRSK | QQYVRLPLA |
| -0.52 | 6/6 | 1/18 | KISGSVMMLSRNPNSVA | EATTRES | QQYHRLPLS |
| 0.44 | 6/6 | 1/18 | QLGKQAQGLGVSNNNVA | NEDVKDA | QQYMRLPLI |
| nd | 0/6 | 0/18 | KLSMSYRWESENKNSIA | ELVTRMS | QQYHRLPLS |
| 0.10 | 6/6 | 1/18 | KMSQSVDLESRNWNSVA | MASTRMD | QQYHRLPLS |
| 0.51 | 6/6 | 0/18 | RMNKFMSGITEAKNSVA | GAEHLAQ | QSYHRLPLS |
| nd | 0/6 | 0/18 | KISMAVTFESRNKNSVA | ENSTRES | QSYHRLPLS |
| 1.64 | 5/6 | 1/18 | KSSQSVLYESREKNSVA | WASTRIE | QQYHRLPLS |
| 1.16 | 6/6 | 3/18 | MMSQLTYMGSRARNAVA | QAETRVN | QQYHHLPLI |
| -0.17 | 6/6 | 1/18 | ALGDVTRMESNKKNSIA | DMSNREE | QQYHRLPLS |
| -0.25 | 6/6 | 3/18 | KMEQGDEYESRNKGSVA | GASVRES | QQYHRLPLS |
| 1.94 | 6/6 | 0/18 | KLQFLVLYESRNKNSVA | EASTRFS | QAYHRLPLS |
| 1.18 | 6/6 | 1/18 | HLHTIMYTEGIGTNSIA | DANLHVD | QQYFRLPIM |
| 2.26 | 2/6 | 0/18 | KLLQEVQGRSQNRNSVA | HNSTRED | QQYDRLPLI |
| 0.18 | 6/6 | 0/18 | KSSQSYLYESRNKNSVA | QASTRES | QQYHRLPLS |
| 0.69 | 6/6 | 0/18 | KLSQSPLYESRNKNSVA | NASTRLS | QQYHRLPLS |
| 1.12 | 6/6 | 1/18 | QLLMATMQEGYNRNSVA | HAETRED | QSYHRLPLS |
| 0.51 | 6/6 | 0/18 | KISQMVNFETTHINAVA | QMSTREE | QQYFRLPLS |
| -0.66 | 6/6 | 0/18 | KLSWSVLYESRNKNNVA | DASTRES | QQYHRLPLS |
| -0.18 | 6/6 | 1/18 | KLSQSMLYESRNKNSVA | NASQRES | QDYHRLPLS |
| -0.50 | 6/6 | 1/18 | KLSGSWLYESRNKNSVA | DASTRES | QQYHRLPLS |
| 0.22 | 6/6 | 0/18 | KIGQQVTYESTNKNAIA | QMTTREE | QQYHRLPLS |
| -0.15 | 6/6 | 0/18 | HLSQSVLYEQRNKNSVA | NASTRES | QQYHRLPLS |
| 0.14 | 6/6 | 1/18 | KLTSVTGTEKVRGNNVA | EMETRER | QQYNRLPLA |
| -0.20 | 6/6 | 0/18 | KLYQSVGTLSHNKQSIA | DMDRRED | QQYHRLPLS |
| 1.39 | 6/6 | 0/18 | KSSQSVLYESRNKNSVA | QASTRES | QQYHRLTLS |
| -0.36 | 6/6 | 1/18 | KLEQSQLYESRNKNSVA | NASTRSS | QQYHRLPLS |
| 1.11 | 6/6 | 0/18 | HLSLPWQLGHDSTNAVA | NMSTLMT | QHYSRLPLS |
| nd | 0/6 | 0/18 | KTSQAFLYESRNKNSVA | DANTRES | QQYHRLPLS |
| 0.01 | 6/6 | 1/18 | KSSQSYLYESGNKNSVA | QASTRES | QQYHRLPLS |
| 2.13 | 4/6 | 1/18 | KLSLSMSYSHEGTRHIA | NGSNRCH | QQYHRLPLI |
| 0.72 | 6/6 | 1/18 | KVSQSVLYESRNKNSVA | WASERES | QQYHRLPLI |
| 0.43 | 6/6 | 0/18 | KLSMVTGHMSMSRNNVA | EMVTREN | QQYDRLPLA |
| 0.18 | 6/6 | 1/18 | KILQSVLYESRNKNSVA | HASTRED | QQYGRLPLS |
| 3.15 | 6/6 | 1/18 | IVSQLMLWGKSAKNSIA | EAVTRLN | QQYDRLPLE |
| 2.29 | 6/6 | 3/18 | KLMDNPWVEDKYRNNIA | DINVKAD | QHYHRLPLL |
| 0.73 | 6/6 | 0/18 | KSMQSVLYESRNKNSVA | WASIRES | QQYMRLPLS |
| -0.18 | 6/6 | 4/18 | KMTKQEQSIGSHQANIA | DSNKITD | QQYYRLPLT |
| 0.88 | 6/6 | 3/18 | KSSQSVLYEDRNKNSVA | WASIREE | QQYHRLPLS |
| 0.11 | 6/6 | 0/18 | KVEQLVLPEDRNKNSVA | NASTRED | QQYHRLPLS |
| -0.01 | 6/6 | 1/18 | KSSESYLYESRNKNSVA | EASTREQ | QQYHRLPLS |
| 2.46 | 4/6 | 0/18 | HISQMWMLESFNKNNVA | EESTRED | QSYFRLPLS |
| 1.28 | 6/6 | 1/18 | KHSQSELYEERNDNSVA | QASQRES | QDYHRLPLS |
| 0.08 | 6/6 | 2/18 | TISQLHNMGTFAINSVA | QASIRNA | QQYDRLPLM |
| 2.89 | 2/6 | 1/18 | TISNSFMMENQFKNSVA | QASTREK | QCYDRLPLS |
| 1.50 | 5/6 | 1/18 | KSSQSVLYEHRNTNSVA | WASTRES | QQYHRLPLS |
| 0.17 | 6/6 | 0/18 | KFSQSVLYESTTFNSVA | NASTRES | QQYHRLPLS |
| 1.25 | 6/6 | 1/18 | RVQIWSGHSDMHWKSIA | SASLRAQ | QQYARLPLE |
| 0.42 | 6/6 | 0/18 | KITATMRFEQKNSNNIA | EVTTRSK | QQYYRLPIS |
| nd | 0/6 | 0/18 | MLSMMEQHMGDMMHNVA | DANVAKM | QDYFRLPLM |
| 1.35 | 6/6 | 2/18 | MISQLYNMGQFAINSVA | QASQRSE | QQYDRLPLI |
| 1.79 | 6/6 | 1/18 | MISQSFFIGMKAKNSVA | QTNTREE | QQYDRLPLI |
| 0.66 | 6/6 | 3/18 | YMSDLSQETSADANHIA | DGEARDV | QQYARLPLI |
| 1.04 | 6/6 | 0/18 | KITQTMRFEQKQKNNIA | EVTTRSK | QQYYRLPLS |
| 2.97 | 3/6 | 1/18 | KLSQVTHSESRNKNSIA | EMVSREV | QQYDRLPLS |
| 1.58 | 6/6 | 0/18 | KSSQSVLDEWNNKNSVA | WASTRES | QQYHRLPLS |
| 0.50 | 6/6 | 4/18 | TIGQMFNGESRNRNSVA | QASTRES | QSYDRLPLI |
| -0.24 | 6/6 | 1/18 | KISQSALMEPRNSNSVA | NASTRQM | QQYHRLPLS |
| 1.39 | 5/6 | 1/18 | HITYGMMVHGRHSKSIA | QAETRAK | QQYDRLPLM |
| 1.81 | 2/6 | 0/18 | SMMFDTSDNYHERNNIA | DQAAIMA | QQYSILPLS |

For reference, 9 entries of the list once more:

| CDR-L1 | CDR-L2 | CDR-L3 | mean log10 Kd (nM) | seen in | signal with controls |
|---|---|---|---|---|---|
| KLQFLVLYESRNKNSVA | GASTRES | QAYHRLPLS | 1.77 | 6/6 | 0/18 |
| HITYGMMVHGRHSKSIA | QAETRAK | QQYDRLPLM | 1.39 | 5/6 | 1/18 |
| KHSQSELYEERNDNSVA | QASQRES | QDYHRLPLS | 1.28 | 6/6 | 1/18 |
| KFSQSVLYESTTFNSVA | NASTRES | QQYHRLPLS | 0.17 | 6/6 | 0/18 |
| HISQMWMLESFNKNNVA | EESTRED | QSYFRLPLS | 2.46 | 4/6 | 0/18 |
| MLSMMEQHMGDMMHNVA | DANVAKM | QDYFRLPLM | nd | 0/6 | 0/18 |
| KISQSALMEPRNSNSVA | NASTRQM | QQYHRLPLS | -0.24 | 6/6 | 1/18 |
| KITTTMRFEQKNTNNIA | EVSTRSK | QQYVRLPLA | -0.12 | 6/6 | 1/18 |
| KIGQQVTYESTNKNAIA | QMTTREE | QQYHRLPLS | 0.22 | 6/6 | 0/18 |